## Measured affinities in a library of Ab-91 heavy chain variants

From the AlphaSeq antibody data of Engelhart et al. 2022 (doi:10.1038/s41597-022-01779-4), copy in the FLAb collection.

Target: peptide PDVDLGDISGINAS, taken from heptad repeat 2 (HR2) of SARS-CoV-2 spike.

The variants keep the light chain, the linker and the frameworks of Ab-91 (scFv order VL, three GGGGS repeats, VH).
VL: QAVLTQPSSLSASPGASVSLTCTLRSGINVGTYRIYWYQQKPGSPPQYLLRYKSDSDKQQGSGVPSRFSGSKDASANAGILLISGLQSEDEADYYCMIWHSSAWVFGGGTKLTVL
VH: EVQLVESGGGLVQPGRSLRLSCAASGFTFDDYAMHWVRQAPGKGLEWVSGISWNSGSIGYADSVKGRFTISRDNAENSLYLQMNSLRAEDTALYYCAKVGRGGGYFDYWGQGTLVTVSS

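The parent was found by panning a naive human phage display library on the peptide. The library (AAYL51) carries one to three amino acid substitutions per variant, with no insertions or deletions. AlphaSeq pools MATa yeast showing the antibodies with MATalpha yeast showing the peptide. Mating (16 h, 30 °C) was followed by selection of diploids and sequencing of their barcodes. Each replicate has its own calibration line, from reference interactions of the BCL2 family. Mating was done three times.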

Each variant's VH is given in full. Numbers give log10(Kd / nM), so 0 is 1 nM and 3 is 1 µM. Smaller is tighter. A mean of the replicates is given; it leaves out those without a signal. An entry "n.d." has no value in the source: the pair was not observed among the diploids in that replicate. This suggests poor binding but is not conclusive. Empty control strains, which show no peptide, gave a signal in 21% of pairings with library AAYL51; the median was 4.54 and 95% of these signals were weaker than 3.26. No background was subtracted. Also given: how often the same scFv was detected with the empty control strains, with their mean in brackets.

| # | VH | log10 Kd, replicates | mean, log10 nM | empty controls |
|---|---|---|---|---|
| 1 | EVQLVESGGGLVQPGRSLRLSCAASGFTFDDYAMHWVRQAPGKGLEWVSGISWNSGSIFYADSVKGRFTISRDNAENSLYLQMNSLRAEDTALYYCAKVGRGGGYFHTWGQGTLVTVSS | n.d. / n.d. / n.d. | n.d. | 0 of 9 |
| 2 | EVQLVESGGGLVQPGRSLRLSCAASGFTFDDYANHWVRQAPGKGLEWVSGISWNSGSIGYTDSVKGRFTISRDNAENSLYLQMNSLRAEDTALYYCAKVGRGGDYFDYWGQGTLVTVSS | n.d. / n.d. / n.d. | n.d. | 1 of 9 (3.67) |
| 3 | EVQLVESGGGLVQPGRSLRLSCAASGFTFDAYAMHWVRQAPGKGLEWVSGISWLSGSIGYADSVKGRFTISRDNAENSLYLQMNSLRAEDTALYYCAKVGNGGGYFDYWGQGTLVTVSS | n.d. / 4.10 / n.d. | 4.10 | 0 of 9 |
| 4 | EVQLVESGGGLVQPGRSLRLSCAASGFTFDDNAMHWVRQAPGKGLEWVSGISANSGSIGYADSVKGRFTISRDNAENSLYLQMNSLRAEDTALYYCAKVGRGGGYFDYWGQGTLVTVSS | 1.71 / 2.05 / 1.62 | 1.79 | 3 of 9 (4.40) |
| 5 | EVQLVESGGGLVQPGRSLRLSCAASGFTFDDYAMHWVRQAPGKGLEWVSGISWNSGSIGYANSVKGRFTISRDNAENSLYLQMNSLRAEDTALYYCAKVGRVGWYFDYWGQGTLVTVSS | 3.63 / n.d. / 4.80 | 4.21 | 4 of 9 (4.55) |
| 6 | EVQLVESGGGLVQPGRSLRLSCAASGETFDDYAMGWVRQAPGKGLEWVSGISWNSGSIGYADSVKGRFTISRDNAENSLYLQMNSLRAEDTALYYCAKVGRGGKYFDYWGQGTLVTVSS | 5.94 / 5.14 / n.d. | 5.54 | 3 of 9 (4.59) |
| 7 | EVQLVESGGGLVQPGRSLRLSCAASYFTFDMYAMHWVRQAPGKGLEWVSGISWNSGSIGYEDSVKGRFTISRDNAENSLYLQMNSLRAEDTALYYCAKVGRGGGYFDYWGQGTLVTVSS | n.d. / 4.37 / n.d. | 4.37 | 1 of 9 (4.83) |
| 8 | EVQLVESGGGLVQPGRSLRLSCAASGFTFDDYAMHWVRQAPGKGLEWVSGISWNSICIGYADSVKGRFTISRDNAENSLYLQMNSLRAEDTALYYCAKVGRGGGYFLYWGQGTLVTVSS | 3.25 / 3.26 / 3.09 | 3.20 | 1 of 9 (5.26) |
| 9 | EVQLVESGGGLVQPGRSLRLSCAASGFTFDDQAMHWVRQAPGKGLEWVSGISWNSGSIGYADSVKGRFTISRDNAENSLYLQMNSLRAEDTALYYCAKVGQGGQYFDYWGQGTLVTVSS | n.d. / n.d. / n.d. | n.d. | 0 of 9 |
| 10 | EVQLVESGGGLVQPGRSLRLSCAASGFTFWDYAMHWVRQAPGKGLEWVSGISWNGGSIGYADSVGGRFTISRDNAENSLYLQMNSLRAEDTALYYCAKVGRGGGYFDYWGQGTLVTVSS | n.d. / n.d. / n.d. | n.d. | 0 of 9 |
| 11 | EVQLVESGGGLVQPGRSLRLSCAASGFTRDDYLMHWVRQAPGKGLEWVSGISWNSGSIGYADSVKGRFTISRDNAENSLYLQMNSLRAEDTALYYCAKVNRGGGYFDYWGQGTLVTVSS | n.d. / n.d. / 4.18 | 4.18 | 5 of 9 (5.65) |
| 12 | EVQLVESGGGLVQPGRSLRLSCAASGFTFDGYAMHWVRQAPGKGLEWVSGISWNSCSIGYADVVKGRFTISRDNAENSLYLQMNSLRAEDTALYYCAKVGRGGGYFDYWGQGTLVTVSS | n.d. / n.d. / n.d. | n.d. | 0 of 9 |
| 13 | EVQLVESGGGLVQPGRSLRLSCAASGFNFDDYAMHWVRQAPGKGLEWVSGISWNSGSIGYADSVKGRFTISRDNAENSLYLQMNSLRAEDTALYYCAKVGRGGGYFDYWGQGTLVTVSS | 2.43 / 2.52 / 1.71 | 2.22 | 4 of 9 (4.22) |
| 14 | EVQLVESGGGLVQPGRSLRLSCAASGFTQDDYAMHWVRQAPGKGLEWVSGISWLSGSIGYADDVKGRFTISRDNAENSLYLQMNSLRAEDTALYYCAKVGRGGGYFDYWGQGTLVTVSS | n.d. / 6.15 / n.d. | 6.15 | 5 of 9 (4.57) |
| 15 | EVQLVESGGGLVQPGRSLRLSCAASGFTFDDYQMHWVRQAPGKGLEWVSTISWNSGSIGYADSVKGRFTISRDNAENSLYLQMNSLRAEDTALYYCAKVGRGWGYFDYWGQGTLVTVSS | n.d. / n.d. / n.d. | n.d. | 0 of 9 |
| 16 | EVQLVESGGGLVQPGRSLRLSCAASGFTFDDYAMHWVRQAPGKGLEWVSGISWNSGSIGYPDSVFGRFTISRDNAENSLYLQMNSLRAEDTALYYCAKVGRGGGEFDYWGQGTLVTVSS | 4.46 / 4.25 / n.d. | 4.36 | 3 of 9 (3.54) |
| 17 | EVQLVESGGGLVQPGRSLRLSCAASGFTFDDYAMHWVRQAPGKGLEWVSGKSWNSGSIGYADSVKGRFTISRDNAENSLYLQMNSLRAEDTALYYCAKVGRGGGYEDFWGQGTLVTVSS | n.d. / n.d. / n.d. | n.d. | 0 of 9 |

The closing 2 entries, repeated:

VH,"log10 Kd, replicates","mean, log10 nM",empty controls
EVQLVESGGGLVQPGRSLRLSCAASGFTFDDYAMHWVRQAPGKGLEWVSGISWNSGSIGYPDSVFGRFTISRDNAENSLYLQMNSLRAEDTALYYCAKVGRGGGEFDYWGQGTLVTVSS,4.46 / 4.25 / n.d.,4.36,3 of 9 (3.54)
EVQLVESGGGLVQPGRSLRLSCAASGFTFDDYAMHWVRQAPGKGLEWVSGKSWNSGSIGYADSVKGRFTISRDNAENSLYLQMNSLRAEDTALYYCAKVGRGGGYEDFWGQGTLVTVSS,n.d. / n.d. / n.d.,n.d.,0 of 9